The data set can be described thus: salt formation results (physical form). In kind it is physicochemical. The following applies: Acid eq. added 1.1. Here is the method: The hydrochloride, hydrobromide, acetate, tartrate, fumarate, malate, oxalate and sulphate salts of N-(3-(4-(3-(diisobutylamino)propyl)piperazin-1-yl)propyl)-1H-benzo[d]imidazol-2-amine were prepared according to procedures similar to those described in the previous examples or standard salt formation methods well known in the art.

Regarding Bromide, the Physical form entry is reported as “No solid formed”.

The record behind these values is patent US10772884B2, “Sulphate salts of N-(3-(4-(3-(diisobutylamino)propyl)piperazin-1-yl)propyl)-1H-benzo[d]imidazol-2-amine, preparation thereof and use of the same” (ALZPROTECT, priority 2012, dated 2020).
